Measured values reported in PubChem BioAssay (NCI).
Only a part is listed here, and it is no random draw.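 Negative percent growth values reflect cell death: -40 means 40% of the cells present at the start died, and -100 means all died.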 The source made the active and inactive calls. How the source made its calls: active means growth percent below 10; inactive means the rest.

What was measured:
Assay in all cases: NCI-60 one-dose screen, 48 h (100 = growth as untreated, 0 = no growth, -100 = all killed)
Conditions in all cases: 10 µM unless noted
SK-MEL-2 melanoma = test system: SK-MEL-2 melanoma
EKVX NSCLC = test system: EKVX NSCLC
SN12C renal = test system: SN12C renal
UO-31 renal = test system: UO-31 renal
TK-10 renal = test system: TK-10 renal
ACHN renal = test system: ACHN renal
CAKI-1 renal = test system: CAKI-1 renal
A498 renal = test system: A498 renal
HL-60(TB) leukemia = test system: HL-60(TB) leukemia
CCRF-CEM leukemia = test system: CCRF-CEM leukemia
MOLT-4 leukemia = test system: MOLT-4 leukemia
SR leukemia = test system: SR leukemia
RPMI-8226 leukemia = test system: RPMI-8226 leukemia
OVCAR-8 ovarian = test system: OVCAR-8 ovarian
OVCAR-5 ovarian = test system: OVCAR-5 ovarian
OVCAR-4 ovarian = test system: OVCAR-4 ovarian
SK-OV-3 ovarian = test system: SK-OV-3 ovarian
OVCAR-3 ovarian = test system: OVCAR-3 ovarian
HS 578T breast = test system: HS 578T breast
IGROV1 ovarian = test system: IGROV1 ovarian

Measured: growth

O=P(O)(NCCCO)N(CCCl)CCCl
inactive: SK-MEL-2 melanoma 86.3% | EKVX NSCLC 95.2% | SN12C renal 98.5% | UO-31 renal 80% | TK-10 renal 97.9% | ACHN renal 97.1% | CAKI-1 renal 97.5% | A498 renal 83.5% | HL-60(TB) leukemia 92.5% | CCRF-CEM leukemia 108% | MOLT-4 leukemia 104% | SR leukemia 122% | RPMI-8226 leukemia 95.3% | OVCAR-8 ovarian 89% | OVCAR-5 ovarian 88.8% | OVCAR-4 ovarian 104% | SK-OV-3 ovarian 89.7% | OVCAR-3 ovarian 116% | HS 578T breast 107%

c1cc(-c2nn[nH]n2)ccc1-c1nn[nH]n1
inactive: SK-MEL-2 melanoma 100% | EKVX NSCLC 91.3% | SN12C renal 95.6% | UO-31 renal 88.6% | TK-10 renal 109% | ACHN renal 99.3% | CAKI-1 renal 96.8% | A498 renal 90% | HL-60(TB) leukemia 88.7% | CCRF-CEM leukemia 93.7% | MOLT-4 leukemia 97.2% | SR leukemia 109% | RPMI-8226 leukemia 94.5% | OVCAR-8 ovarian 99.9% | OVCAR-5 ovarian 108% | OVCAR-4 ovarian 94.5% | SK-OV-3 ovarian 99.3% | IGROV1 ovarian 120% | OVCAR-3 ovarian 107% | HS 578T breast 93%

ClCCN1c2ccccc2Sc2ccccc21
inactive: SK-MEL-2 melanoma 97.9% | EKVX NSCLC 96.4% | SN12C renal 111% | UO-31 renal 92.8% | TK-10 renal 102% | ACHN renal 108% | CAKI-1 renal 85.9% | A498 renal 103% | HL-60(TB) leukemia 107% | CCRF-CEM leukemia 105% | MOLT-4 leukemia 99.2% | SR leukemia 98.8% | RPMI-8226 leukemia 98.5% | OVCAR-8 ovarian 100% | OVCAR-5 ovarian 121% | OVCAR-4 ovarian 98% | SK-OV-3 ovarian 109% | IGROV1 ovarian 108% | HS 578T breast 100%

ClCCN1c2ccccc2Oc2ccccc21
inactive: SK-MEL-2 melanoma 105% | EKVX NSCLC 98.8% | SN12C renal 98.9% | UO-31 renal 94.4% | TK-10 renal 96.8% | ACHN renal 100% | CAKI-1 renal 94.3% | A498 renal 106% | HL-60(TB) leukemia 114% | CCRF-CEM leukemia 107% | MOLT-4 leukemia 109% | SR leukemia 93.1% | RPMI-8226 leukemia 98.4% | OVCAR-8 ovarian 102% | OVCAR-5 ovarian 105% | OVCAR-4 ovarian 103% | SK-OV-3 ovarian 114% | IGROV1 ovarian 103% | HS 578T breast 117%

COC1OC(CNCCCl)C2OC(C)(C)OC12 (stereo unspecified)
inactive: SK-MEL-2 melanoma 86.4% | EKVX NSCLC 160% | SN12C renal 104% | UO-31 renal 93.3% | TK-10 renal 124% | ACHN renal 108% | CAKI-1 renal 98.7% | A498 renal 110% | HL-60(TB) leukemia 108% | CCRF-CEM leukemia 121% | MOLT-4 leukemia 115% | SR leukemia 114% | RPMI-8226 leukemia 119% | OVCAR-8 ovarian 98.4% | OVCAR-5 ovarian 97.8% | OVCAR-4 ovarian 102% | SK-OV-3 ovarian 94.8% | OVCAR-3 ovarian 126% | HS 578T breast 129%

O=[N+]([O-])c1cc(Cl)cc([N+](=O)[O-])c1O
inactive: SK-MEL-2 melanoma 106% | EKVX NSCLC 110% | SN12C renal 104% | UO-31 renal 94.1% | TK-10 renal 107% | ACHN renal 107% | CAKI-1 renal 110% | A498 renal 103% | HL-60(TB) leukemia 97.3% | CCRF-CEM leukemia 96.4% | MOLT-4 leukemia 108% | SR leukemia 102% | RPMI-8226 leukemia 96.2% | OVCAR-8 ovarian 95.4% | OVCAR-5 ovarian 107% | OVCAR-4 ovarian 106% | SK-OV-3 ovarian 97.2% | IGROV1 ovarian 107% | OVCAR-3 ovarian 115% | HS 578T breast 105%

COc1ccc(C2N=C(NN=C(CCl)CCl)SP2(=O)Nc2ncccn2)c(OC)c1 (stereo unspecified)
inactive: SK-MEL-2 melanoma 118% [100 µM] | EKVX NSCLC 107% [100 µM] | SN12C renal 90.3% [100 µM] | UO-31 renal 76.5% [100 µM] | TK-10 renal 156% [100 µM] | ACHN renal 94.2% [100 µM] | CAKI-1 renal 79.3% [100 µM] | A498 renal 111% [100 µM] | HL-60(TB) leukemia 99.2% [100 µM] | CCRF-CEM leukemia 101% [100 µM] | MOLT-4 leukemia 110% [100 µM] | SR leukemia 100% [100 µM] | RPMI-8226 leukemia 102% [100 µM] | OVCAR-8 ovarian 105% [100 µM] | OVCAR-5 ovarian 102% [100 µM] | OVCAR-4 ovarian 101% [100 µM] | SK-OV-3 ovarian 95.5% [100 µM] | IGROV1 ovarian 99% [100 µM] | OVCAR-3 ovarian 109% [100 µM] | HS 578T breast 93.3% [100 µM]

CCN(CCCl)Cc1ccccc1
inactive: SK-MEL-2 melanoma 91.1% | EKVX NSCLC 113% | SN12C renal 95% | UO-31 renal 89.2% | TK-10 renal 101% | ACHN renal 101% | CAKI-1 renal 115% | A498 renal 99.8% | HL-60(TB) leukemia 88.5% | CCRF-CEM leukemia 82.3% | MOLT-4 leukemia 88.7% | SR leukemia 94.4% | RPMI-8226 leukemia 94.9% | OVCAR-8 ovarian 105% | OVCAR-5 ovarian 105% | OVCAR-4 ovarian 101% | SK-OV-3 ovarian 102% | IGROV1 ovarian 104% | OVCAR-3 ovarian 115% | HS 578T breast 115%
